Measurements: patent US20010053777A1, “Drug treatment for restless leg syndrome” (priority 1999, published 2001)

Tested on: patients with RLS
Assay: Treatment of 2 patients with RLS: therapeutic history, monotherapy trials and combination therapy
Settings: 2 RLS patients, previous therapy or monotherapy; dose-limiting or intolerable
Description: 2 patients with RLS (person and person) were treated with a combination therapy of pramipexole and clonidine.
The clonidine was also initially prescribed in a single dose of 0.075 mg two hours before bedtime and increased by 0.075 mg at intervals of 3 days.
2. Treatment with a combination therapy of clonidine and pramipexole After slowly bringing the clonidine therapy to a complete halt and after a treatment-free period of about 1 week, both patients were treated with a combination of 0.088 mg of pramipexole and 0.075 mg of clonidine. […] After 7 days the dosage of pramipexole had been increased to 0.18 mg and the dosage of clonidine to 0.15 mg, two hours before going to nd sleep.

bromocryptine
side effects: nausea, gastrointestinal problems and dizziness
